Data: publication PMC10485003, “Antibiotic hyper-resistance in a class I aminoacyl-tRNA synthetase with altered active site signature motif” (Nature Communications, 2023)

Chains of the proteins cited; added tags and fusions are not shown. Lines headed by an entry give the natural chain unless they say otherwise; changes in a name come on top.
UniProt Q9RUP8: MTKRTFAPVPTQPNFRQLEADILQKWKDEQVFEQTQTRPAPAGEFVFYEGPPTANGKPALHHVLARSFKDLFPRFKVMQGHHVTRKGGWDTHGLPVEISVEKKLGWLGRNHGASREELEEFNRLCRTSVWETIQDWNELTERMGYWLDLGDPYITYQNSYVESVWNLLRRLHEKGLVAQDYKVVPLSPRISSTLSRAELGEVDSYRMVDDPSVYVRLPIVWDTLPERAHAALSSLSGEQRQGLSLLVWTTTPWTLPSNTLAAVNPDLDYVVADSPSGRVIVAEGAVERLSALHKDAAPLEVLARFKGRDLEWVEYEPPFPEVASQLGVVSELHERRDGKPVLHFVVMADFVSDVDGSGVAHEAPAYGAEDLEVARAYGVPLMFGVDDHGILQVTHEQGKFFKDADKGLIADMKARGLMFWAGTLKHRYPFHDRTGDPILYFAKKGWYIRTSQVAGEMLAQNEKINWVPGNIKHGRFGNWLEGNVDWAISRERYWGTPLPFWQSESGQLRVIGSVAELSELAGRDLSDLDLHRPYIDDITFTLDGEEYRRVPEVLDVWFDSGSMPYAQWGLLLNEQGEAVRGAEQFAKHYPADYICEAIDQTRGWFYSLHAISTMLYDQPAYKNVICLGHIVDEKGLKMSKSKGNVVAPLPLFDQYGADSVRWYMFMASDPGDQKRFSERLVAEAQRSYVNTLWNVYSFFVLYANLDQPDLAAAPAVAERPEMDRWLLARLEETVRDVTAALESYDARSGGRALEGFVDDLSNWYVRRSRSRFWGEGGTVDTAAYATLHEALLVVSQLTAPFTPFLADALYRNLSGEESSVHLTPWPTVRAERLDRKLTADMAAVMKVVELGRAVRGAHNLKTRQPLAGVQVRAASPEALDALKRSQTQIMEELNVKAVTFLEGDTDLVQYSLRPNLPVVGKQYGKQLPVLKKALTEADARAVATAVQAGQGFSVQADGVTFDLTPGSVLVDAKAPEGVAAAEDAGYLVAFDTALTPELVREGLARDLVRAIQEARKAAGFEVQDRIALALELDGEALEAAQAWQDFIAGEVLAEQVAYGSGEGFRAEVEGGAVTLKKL

Legend:
Assay in all cases: ATP-PPi exchange assay, mupirocin inhibition of amino acid activation
[1] = biological target: T1, mut-GVHH PmIleRS2 (Priestia megaterium, UniProt A0A0B6AVD3, G56H/H54G); assay type: biochemical, Priestia (Bacillus) megaterium
T1 sequence (A0A0B6AVD3 1-1032 H54G/G56H): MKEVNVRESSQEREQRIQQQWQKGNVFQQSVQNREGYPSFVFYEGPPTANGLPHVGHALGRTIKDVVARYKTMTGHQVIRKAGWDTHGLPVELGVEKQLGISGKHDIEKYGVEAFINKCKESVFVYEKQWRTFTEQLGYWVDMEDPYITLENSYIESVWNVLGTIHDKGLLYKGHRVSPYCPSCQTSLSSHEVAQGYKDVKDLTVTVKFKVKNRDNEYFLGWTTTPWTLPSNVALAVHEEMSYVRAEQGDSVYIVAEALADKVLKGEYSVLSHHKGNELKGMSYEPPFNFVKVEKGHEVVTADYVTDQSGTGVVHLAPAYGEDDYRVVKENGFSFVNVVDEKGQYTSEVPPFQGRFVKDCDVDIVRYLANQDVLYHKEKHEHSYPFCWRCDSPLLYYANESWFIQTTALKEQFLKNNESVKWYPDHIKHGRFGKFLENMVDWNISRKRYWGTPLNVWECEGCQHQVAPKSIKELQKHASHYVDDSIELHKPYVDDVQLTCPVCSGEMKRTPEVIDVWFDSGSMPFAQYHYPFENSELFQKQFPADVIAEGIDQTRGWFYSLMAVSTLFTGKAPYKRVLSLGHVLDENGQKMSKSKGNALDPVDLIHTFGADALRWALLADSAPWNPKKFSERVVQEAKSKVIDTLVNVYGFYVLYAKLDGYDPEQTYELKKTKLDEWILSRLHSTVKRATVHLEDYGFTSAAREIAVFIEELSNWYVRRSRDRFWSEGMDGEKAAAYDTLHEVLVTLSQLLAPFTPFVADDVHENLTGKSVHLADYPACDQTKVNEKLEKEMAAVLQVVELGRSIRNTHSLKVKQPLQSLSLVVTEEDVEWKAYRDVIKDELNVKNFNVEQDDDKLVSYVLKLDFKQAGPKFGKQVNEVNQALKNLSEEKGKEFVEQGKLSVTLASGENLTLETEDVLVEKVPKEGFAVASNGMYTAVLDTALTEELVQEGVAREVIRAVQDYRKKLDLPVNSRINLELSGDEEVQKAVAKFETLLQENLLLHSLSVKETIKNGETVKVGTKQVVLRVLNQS
Method: (§1) L-Ile and ATP concentrations ranged from 1/10 KM to 10 KM values. When measuring the KI towards one of the substrates, the other was held in saturation (concentrations at least 10 KM). The aliquots of the reaction mixture (1–2.5 μl) were quenched in 2 volumes of 500 mM NaOAc pH = 4.5, 0.1% SDS, and formed ^32P-ATP was separated from the remaining ^32P-PPi by thin-layer chromatography on Polygram CEL 300 PEI UV254 TLC plates (Macherey-Nagel, cat: 801063) using 750 mM KH2PO4 pH=3.5, 4 M urea buffer. Visualization and quantification of the signals was performed using a Typhoon Phosphoimager 5 (General Electric) and accompanying ImageQuant™ TL software (SV: 10.2). The kinetic constants were determined using a global fit option of the competitive inhibition model of GraphPad Prism 6 software (SV: 6.01). All experiments were performed in triplicates. The kcat was determined by dividing the maximal velocity, VM, with the used enzyme concentration. […]
(§2) variable substrate (ATP or Ile) was varied in the range of 0.1 KM to 10 KM. The other substrate (Ile or ATP) was kept in excess at 5 to 10 KM. Data were globally fitted to the competitive inhibition model using GraphPad prism 6.01 for Windows software. The values represent the average value ± SD of three independent experiments. Source data are provided as a Source Data file.

[2] = biological target: T2, wt-HVGH TtIleRS2 (Thermus thermophilus, UniProt P56690); assay type: biochemical; settings: c(mupirocin) 5.0 μM; c(ATP) 15.0 mM
T2 construct: hexa-histidine tag (pET28b(+)) (N); made in house; host or cells: E. coli Rosetta2 (DE3)
T2 sequence (P56690 1-1043): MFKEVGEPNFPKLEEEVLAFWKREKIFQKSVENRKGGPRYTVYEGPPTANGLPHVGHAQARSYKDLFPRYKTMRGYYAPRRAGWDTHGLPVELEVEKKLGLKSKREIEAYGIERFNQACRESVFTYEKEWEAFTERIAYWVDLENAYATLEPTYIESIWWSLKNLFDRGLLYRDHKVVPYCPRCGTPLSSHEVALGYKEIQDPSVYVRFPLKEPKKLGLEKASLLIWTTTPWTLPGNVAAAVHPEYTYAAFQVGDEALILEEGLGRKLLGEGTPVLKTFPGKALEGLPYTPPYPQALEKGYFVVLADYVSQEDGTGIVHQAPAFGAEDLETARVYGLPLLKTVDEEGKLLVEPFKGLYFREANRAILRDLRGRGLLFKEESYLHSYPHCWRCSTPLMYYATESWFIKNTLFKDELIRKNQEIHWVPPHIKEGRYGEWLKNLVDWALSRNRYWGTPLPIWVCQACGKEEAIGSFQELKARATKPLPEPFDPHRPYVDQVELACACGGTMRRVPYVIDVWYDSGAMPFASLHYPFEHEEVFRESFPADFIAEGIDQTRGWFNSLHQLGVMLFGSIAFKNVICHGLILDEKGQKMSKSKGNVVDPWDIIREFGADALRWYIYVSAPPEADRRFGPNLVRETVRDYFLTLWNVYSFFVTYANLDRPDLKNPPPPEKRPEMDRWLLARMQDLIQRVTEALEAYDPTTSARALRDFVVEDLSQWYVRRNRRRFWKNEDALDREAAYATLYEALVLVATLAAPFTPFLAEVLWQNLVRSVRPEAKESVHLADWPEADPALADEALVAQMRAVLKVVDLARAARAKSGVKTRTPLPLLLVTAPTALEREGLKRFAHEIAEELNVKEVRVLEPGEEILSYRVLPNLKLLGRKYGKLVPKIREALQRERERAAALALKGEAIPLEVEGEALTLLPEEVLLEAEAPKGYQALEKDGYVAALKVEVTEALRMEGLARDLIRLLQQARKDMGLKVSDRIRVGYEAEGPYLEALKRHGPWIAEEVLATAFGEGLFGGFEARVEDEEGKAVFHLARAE
Method: as §1, §2

[3] = biological target: T3, wt-ALHH DrIleRS2 (Deinococcus radiodurans, UniProt Q9RUP8); assay type: biochemical; settings: amino acid activation step; higher
T3 construct: hexa-histidine tag (pET28b(+)) (N); made in house; host or cells: E. coli BL21(DE3)
Method: as §1, §2

## C/C(=C\C(=O)OCCCCCCCCC(=O)O)C[C@@H]1OC[C@H](C[C@@H]2O[C@H]2[C@@H](C)[C@H](C)O)[C@@H](O)[C@H]1O [mupirocin]
[1]; MUT/WT PmIleRS2, Repl1-Repl3, towards Ile
  FOLD Change of KI, single replicates: 451.9 and 482.8 and 354.7
[1]; c (mupirocin) = 0.5 mM, c (Ile) 100.0 μM, Replica 3
  vo: 0.01792 mM/min
[2]
  initial velocity vo: 0.01745 mM/min
[3]
  Ki relative to the Ki of the IleRS2 enzymes carrying the canonical HXGH motif: > 10^3 fold

Where “and” joins values, the source holds several entries; their conditions need not be identical. Equal values may be shown once.
